# Data reported in US11413255B2, “Multifunctional cytoprotectant for treatment of pathogenic processes mediated by oxidative stress and toxic electrophiles” (Montefiore Medical Center, priority 2015, dated 2022).
# Tested on: isolated hepatocytes exposed to graded APAP
# Assay: Isolated hepatocytes, fixed protectant and graded APAP concentrations
# Assay type: cell-based, mouse
# Conditions: 1.0 mM protectant
compound,measurement,value
"Oc1cc(O)cc(O)c1 [PG, 1,3,5-trihydroxybenzene]","toxicity measures (ALT appearance, mitochondrial membrane potential)",near-normal
